# System: Leishmania donovani
# Conditions: MHOM/IN/80/Dd8, J774.A1, 3000 ug/mL
substance,measurement,value
Sodium Stibogluconate,inhibition,86.8%

# Reference: ChEMBL document CHEMBL1144176, “Synthesis and biological evaluation of indolyl bisphosphonates as anti-bone resorptive and anti-leishmanial agents” (Bioorg Med Chem, 2008)
